# The list shows a part of the results, in another mix than the full data. Records with an inconclusive call do not appear. The source made the active and inactive calls. How the source made its calls, unless noted: active means hit-call score of the fitted dose curve at least 0.9, where 1 is the maximum; inactive means score below 0.9.
# Chains of the proteins cited; added tags and fusions are not shown.
# UniProt P26367, whole entry: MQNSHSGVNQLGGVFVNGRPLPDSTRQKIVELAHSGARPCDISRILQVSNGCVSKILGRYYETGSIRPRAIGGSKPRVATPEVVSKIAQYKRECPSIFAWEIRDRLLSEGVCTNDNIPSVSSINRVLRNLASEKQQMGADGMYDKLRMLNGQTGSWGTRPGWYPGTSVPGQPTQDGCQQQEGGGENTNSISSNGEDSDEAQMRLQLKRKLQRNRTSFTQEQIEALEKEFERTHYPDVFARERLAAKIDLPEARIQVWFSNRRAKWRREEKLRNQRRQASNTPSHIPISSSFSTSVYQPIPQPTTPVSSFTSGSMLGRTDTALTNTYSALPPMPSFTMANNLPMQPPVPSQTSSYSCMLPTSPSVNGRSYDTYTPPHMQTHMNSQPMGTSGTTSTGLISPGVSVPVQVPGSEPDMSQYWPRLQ
# UniProt P08047, whole entry: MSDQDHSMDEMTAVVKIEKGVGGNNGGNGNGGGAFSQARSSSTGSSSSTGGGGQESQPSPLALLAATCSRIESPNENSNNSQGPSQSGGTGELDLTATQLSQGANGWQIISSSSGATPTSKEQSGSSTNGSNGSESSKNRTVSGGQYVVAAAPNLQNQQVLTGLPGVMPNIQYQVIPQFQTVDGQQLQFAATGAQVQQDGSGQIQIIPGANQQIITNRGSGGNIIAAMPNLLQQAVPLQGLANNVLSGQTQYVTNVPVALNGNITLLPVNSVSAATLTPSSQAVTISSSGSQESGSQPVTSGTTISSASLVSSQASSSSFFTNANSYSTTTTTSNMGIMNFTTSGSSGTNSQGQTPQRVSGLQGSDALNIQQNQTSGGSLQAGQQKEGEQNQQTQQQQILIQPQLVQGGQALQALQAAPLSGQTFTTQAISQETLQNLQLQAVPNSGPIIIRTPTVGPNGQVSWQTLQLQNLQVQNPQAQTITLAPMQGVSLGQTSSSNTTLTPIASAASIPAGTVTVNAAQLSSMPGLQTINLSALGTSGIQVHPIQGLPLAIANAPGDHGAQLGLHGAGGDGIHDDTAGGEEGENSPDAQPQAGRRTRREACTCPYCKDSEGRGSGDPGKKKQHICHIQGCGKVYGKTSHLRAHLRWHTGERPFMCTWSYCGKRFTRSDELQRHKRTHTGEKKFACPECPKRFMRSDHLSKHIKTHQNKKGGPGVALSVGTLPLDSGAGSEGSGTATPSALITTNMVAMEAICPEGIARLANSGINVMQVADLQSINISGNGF
# UniProt P40763, whole entry: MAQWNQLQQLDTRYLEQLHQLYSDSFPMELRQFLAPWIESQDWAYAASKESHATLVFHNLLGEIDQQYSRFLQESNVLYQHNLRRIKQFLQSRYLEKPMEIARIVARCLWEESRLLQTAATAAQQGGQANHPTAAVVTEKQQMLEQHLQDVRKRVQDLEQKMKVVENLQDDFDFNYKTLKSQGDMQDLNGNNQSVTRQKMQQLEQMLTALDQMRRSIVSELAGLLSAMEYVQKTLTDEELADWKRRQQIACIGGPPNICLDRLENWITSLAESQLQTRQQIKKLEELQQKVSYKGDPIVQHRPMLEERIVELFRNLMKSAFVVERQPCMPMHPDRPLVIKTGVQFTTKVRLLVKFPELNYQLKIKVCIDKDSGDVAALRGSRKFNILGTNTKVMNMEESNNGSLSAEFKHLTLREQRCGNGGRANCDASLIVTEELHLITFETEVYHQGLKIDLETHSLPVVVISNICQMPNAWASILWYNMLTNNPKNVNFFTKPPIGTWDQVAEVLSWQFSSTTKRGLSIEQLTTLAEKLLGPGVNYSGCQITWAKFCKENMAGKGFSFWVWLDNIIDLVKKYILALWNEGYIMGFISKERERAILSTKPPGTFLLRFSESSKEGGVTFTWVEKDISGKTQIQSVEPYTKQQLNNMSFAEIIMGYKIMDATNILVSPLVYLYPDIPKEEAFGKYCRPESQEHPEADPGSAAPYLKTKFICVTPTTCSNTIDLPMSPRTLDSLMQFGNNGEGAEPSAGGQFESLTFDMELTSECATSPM
# UniProt Q14994, whole entry: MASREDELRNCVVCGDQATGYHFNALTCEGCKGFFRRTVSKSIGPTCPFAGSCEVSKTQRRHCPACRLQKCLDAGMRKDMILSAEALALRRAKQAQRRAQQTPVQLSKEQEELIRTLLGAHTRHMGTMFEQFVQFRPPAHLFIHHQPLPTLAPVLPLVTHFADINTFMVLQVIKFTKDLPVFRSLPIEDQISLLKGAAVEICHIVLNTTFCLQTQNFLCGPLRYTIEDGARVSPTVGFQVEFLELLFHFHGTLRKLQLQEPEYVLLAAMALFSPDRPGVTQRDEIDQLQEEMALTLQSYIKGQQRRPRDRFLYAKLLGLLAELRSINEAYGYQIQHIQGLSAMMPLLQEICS
# UniProt P17861, whole entry: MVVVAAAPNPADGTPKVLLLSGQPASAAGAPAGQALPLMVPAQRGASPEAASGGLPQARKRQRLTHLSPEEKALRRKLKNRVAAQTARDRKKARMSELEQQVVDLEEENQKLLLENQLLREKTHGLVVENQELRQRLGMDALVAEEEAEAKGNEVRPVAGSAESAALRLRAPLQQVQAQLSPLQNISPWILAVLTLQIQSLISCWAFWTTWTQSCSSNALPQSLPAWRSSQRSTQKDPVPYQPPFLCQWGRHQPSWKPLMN
# UniProt P10275, whole entry: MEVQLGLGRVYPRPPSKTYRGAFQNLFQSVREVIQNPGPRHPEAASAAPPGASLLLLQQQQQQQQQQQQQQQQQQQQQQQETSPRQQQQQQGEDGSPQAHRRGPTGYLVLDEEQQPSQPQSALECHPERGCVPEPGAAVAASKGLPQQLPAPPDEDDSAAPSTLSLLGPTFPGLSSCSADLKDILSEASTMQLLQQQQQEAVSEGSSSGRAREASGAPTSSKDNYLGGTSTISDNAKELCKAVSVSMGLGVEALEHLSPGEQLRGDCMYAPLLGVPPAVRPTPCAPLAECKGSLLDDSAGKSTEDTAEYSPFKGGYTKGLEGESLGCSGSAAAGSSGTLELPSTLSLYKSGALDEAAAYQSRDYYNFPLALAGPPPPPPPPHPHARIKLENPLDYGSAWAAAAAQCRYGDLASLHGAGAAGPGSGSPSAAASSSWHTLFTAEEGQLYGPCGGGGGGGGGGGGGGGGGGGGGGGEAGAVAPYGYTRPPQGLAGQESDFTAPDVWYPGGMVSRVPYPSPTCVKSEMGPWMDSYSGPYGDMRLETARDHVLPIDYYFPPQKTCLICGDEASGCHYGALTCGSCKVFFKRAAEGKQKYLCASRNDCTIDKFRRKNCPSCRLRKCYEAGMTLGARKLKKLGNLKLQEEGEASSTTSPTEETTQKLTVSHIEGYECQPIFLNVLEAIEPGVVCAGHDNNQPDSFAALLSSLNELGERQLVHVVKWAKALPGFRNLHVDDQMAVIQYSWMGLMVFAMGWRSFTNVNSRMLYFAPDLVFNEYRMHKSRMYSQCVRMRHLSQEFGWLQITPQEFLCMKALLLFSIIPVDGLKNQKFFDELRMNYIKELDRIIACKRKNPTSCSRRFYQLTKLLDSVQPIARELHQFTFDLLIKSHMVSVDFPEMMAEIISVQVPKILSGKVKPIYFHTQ
# UniProt P11474, whole entry: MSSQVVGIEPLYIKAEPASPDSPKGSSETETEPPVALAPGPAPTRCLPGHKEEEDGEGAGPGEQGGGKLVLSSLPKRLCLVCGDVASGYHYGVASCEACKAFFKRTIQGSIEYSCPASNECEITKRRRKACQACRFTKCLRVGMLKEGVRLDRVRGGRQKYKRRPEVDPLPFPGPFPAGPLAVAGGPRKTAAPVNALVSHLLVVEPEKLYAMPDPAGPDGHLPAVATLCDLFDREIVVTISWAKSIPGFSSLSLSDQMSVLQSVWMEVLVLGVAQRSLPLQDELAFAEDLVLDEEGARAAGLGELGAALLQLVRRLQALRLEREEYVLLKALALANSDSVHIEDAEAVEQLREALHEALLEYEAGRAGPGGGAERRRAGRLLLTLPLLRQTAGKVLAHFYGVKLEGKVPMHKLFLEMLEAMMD
# UniProt P03372, whole entry: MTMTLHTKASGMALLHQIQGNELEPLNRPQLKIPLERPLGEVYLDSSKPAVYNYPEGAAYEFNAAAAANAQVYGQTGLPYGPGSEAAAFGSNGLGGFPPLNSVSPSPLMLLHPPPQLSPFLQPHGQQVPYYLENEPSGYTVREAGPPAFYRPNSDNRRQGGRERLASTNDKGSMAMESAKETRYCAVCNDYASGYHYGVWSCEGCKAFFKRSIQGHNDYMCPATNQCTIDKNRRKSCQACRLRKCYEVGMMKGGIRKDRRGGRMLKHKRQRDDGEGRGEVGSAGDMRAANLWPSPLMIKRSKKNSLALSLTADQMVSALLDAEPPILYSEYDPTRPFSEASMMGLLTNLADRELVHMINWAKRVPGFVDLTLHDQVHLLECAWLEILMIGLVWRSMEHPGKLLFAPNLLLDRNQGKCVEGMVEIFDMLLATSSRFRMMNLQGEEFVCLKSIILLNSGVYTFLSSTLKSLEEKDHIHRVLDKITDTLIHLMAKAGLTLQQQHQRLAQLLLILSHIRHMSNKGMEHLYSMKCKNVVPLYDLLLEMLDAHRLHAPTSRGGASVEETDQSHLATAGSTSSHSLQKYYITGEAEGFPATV
# Assays:
# [1] = ATG_PBREM_CIS: Attagene CIS-FACTORIAL HepG2 Assay for human Phenobarbital-responsive Enhancer Module (PBREM) (AID 2282955); conditions: HepG2 PBREM cis-reporter, Attagene multiplexed transcription; actives raise or lower the signal
# Summary of the method: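 Cells were transfected with cis-element reporter units and treated for 24 h, after which RNA was extracted and reporter transcripts measured by RT-PCR and capillary electrophoresis.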
# [2] = molecular target: Paired box protein Pax-6 (Homo sapiens) (UniProt P26367); test: ATG_Pax6_CIS: Attagene CIS-FACTORIAL HepG2 Assay for human Paired Box 6 (PAX6) (AID 2282956); conditions: HepG2 CIS-FACTORIAL PAX6 reporter transcription, RNA readout; actives raise or lower the signal
# Summary of the method: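 Fluorescent RT-PCR products separated by capillary electrophoresis report PAX6-linked promoter mRNA in HepG2 cells 24 h post-dose. Curves fitted bidirectionally, DMSO as negative control.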
# [3] = ATG_PXRE_CIS: Attagene CIS-FACTORIAL HepG2 Assay for human Pregnane X Receptor Element (PXRE) (AID 2282957); conditions: HepG2 Attagene CIS-FACTORIAL PXRE reporter, mRNA; actives raise or lower the signal
# Summary of the method: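 Fluorescent capillary electrophoresis of amplified reporter cDNA gave the signal, collected 24 h after dosing HepG2 cells that held transfected cis-element reporter constructs.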
# [4] = ATG_PPRE_CIS: Attagene CIS-FACTORIAL HepG2 Assay for human Peroxisome Proliferator-activated Response Element (PPRE) (AID 2282958); conditions: HepG2 PPRE cis-element reporter, Attagene transcription factor profiling; actives raise or lower the signal
# Summary of the method: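 In this cell-based multiplex, a PPRE cis element drives a reporter sequence in transiently transfected HepG2 cells. Following 24 h treatment, labeled cDNA amplicons are sized and quantified by capillary electrophoresis, with DMSO defining baseline.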
# [5] = ATG_RORE_CIS: Attagene CIS-FACTORIAL HepG2 Assay for human RAR-related Orphan Receptor Element (RORE) (AID 2282959); conditions: HepG2 Attagene cis-factorial RORE reporter, mRNA; actives raise or lower the signal
# Summary of the method: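 Endogenous factor activity at a cis response element is read as reporter transcript levels in HepG2 cells, 24 h post-dose. Transcripts are quantified by RT-PCR with capillary electrophoresis, and data fitted in both directions against DMSO.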
# [6] = ATG_Sox_CIS: Attagene CIS-FACTORIAL HepG2 Assay for human SRY-box transcription factor (SOX) (AID 2282960); conditions: HepG2 Attagene cis-factorial SOX reporter, mRNA; actives raise or lower the signal
# Summary of the method: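 Measures mRNA induction of a SOX1-associated reporter in HepG2 after 24 h dosing. Fluorescently labelled RT-PCR fragments are separated by capillary electrophoresis, and gain or loss relative to DMSO control is fitted.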
# [7] = molecular target: Transcription factor Sp1 (Homo sapiens) (UniProt P08047); test: ATG_Sp1_CIS: Attagene CIS-FACTORIAL HepG2 Assay for human Specificity Protein 1 (Sp1) (AID 2282961); conditions: HepG2 Sp1 cis-reporter transcription, actives raise or lower the signal
# Summary of the method: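 Cells: HepG2, transiently transfected with cis-regulated multiplexed reporters. Exposure: 24 h. Detection: reporter transcripts amplified, fluorescently labeled, restriction-digested and sized by capillary electrophoresis. Analysis: bidirectional fit relative to DMSO.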
# [8] = ATG_SREBP_CIS: Attagene CIS-FACTORIAL HepG2 Assay for human Sterol Regulatory Element Binding (SREBP) (AID 2282962); conditions: HepG2 Attagene cis-factorial SREBP reporter, mRNA; actives raise or lower the signal
# Summary of the method: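 Endogenous factor activity is measured in HepG2 through multiplexed reporter units under cis-element control. Following a 24 h incubation, reporter transcripts are reverse-transcribed, PCR-amplified and sized by capillary electrophoresis; activity is fitted in both directions relative to DMSO.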
# [9] = molecular target: Signal transducer and activator of transcription 3 (Homo sapiens) (UniProt P40763); test: ATG_STAT3_CIS: Attagene CIS-FACTORIAL HepG2 Assay for human Signal Transducer and Activator of Transcription 3 (STAT3) (AID 2282963); conditions: HepG2, Attagene cis-factorial STAT3 reporter transcription; actives raise or lower the signal
# Summary of the method: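 Readout is reporter transcript quantified by RT-PCR and capillary electrophoresis, with 6-FAM primer extension and HpaI digestion. Total RNA is taken 24 h after dosing transiently transfected HepG2 carrying cis-regulated reporter units. Bidirectional fit against DMSO.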
# [10] = ATG_TA_CIS: Attagene CIS-FACTORIAL HepG2 Assay for human TA Basal Promoter (AID 2282964); conditions: HepG2 Attagene CIS-factorial TA basal promoter reporter; actives raise or lower the signal
# Summary of the method: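 Transient MRTU transfection of HepG2 preceded 24 h compound exposure. Reporter mRNA levels were then read by RT-PCR with capillary electrophoresis, and this background-control endpoint was fitted bidirectionally to DMSO.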
# [11] = ATG_TCF_b_cat_CIS: Attagene CIS-FACTORIAL HepG2 Assay for human T-Cell-Factor with beta-catenin (TCF/b-cat) (AID 2282965); conditions: HepG2 TCF/beta-catenin cis-reporter transcription, actives raise or lower the signal
# Summary of the method: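 Measured: reporter mRNA in HepG2 transiently transfected with cis-promoter reporter units, 24 h after chemical addition. Fitting was bidirectional, DMSO as negative control.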
# [12] = ATG_TAL_CIS: Attagene CIS-FACTORIAL HepG2 Assay for human TAL Basal Promoter (AID 2282966); conditions: HepG2 Attagene cis-factorial TAL promoter reporter; actives raise or lower the signal;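 further: background control endpoint measuring basal TAL promoter reporter mRNA not a specific factor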
# Summary of the method: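 Transiently transfected HepG2 (cis-regulated reporter units), 24 h treatment, mRNA read by fluorescent CE after RT-PCR; bidirectional fit, DMSO baseline.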
# [13] = ATG_TGFb_CIS: Attagene CIS-FACTORIAL HepG2 Assay for human Transforming Growth Factor (TGF) (AID 2282967); conditions: HepG2 Attagene CIS TGFb reporter, mRNA transcription; actives raise or lower the signal
# Summary of the method: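 After a 24-hour incubation with compound, transfected HepG2 cells were lysed for RNA; reporter cDNA was amplified, fluorescently end-labeled and separated by CE. DMSO served as baseline for bidirectional fits.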
# [14] = ATG_VDRE_CIS: Attagene CIS-FACTORIAL HepG2 Assay for human Vitamin D Receptor Element (VDRE) (AID 2282968); conditions: HepG2 VDRE cis-reporter transcription, actives raise or lower the signal
# Summary of the method: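 Readout is VDRE-driven reporter mRNA reflecting endogenous factor activity in human HepG2 cells, sampled 24 h post-dose. Quantification used labelled RT-PCR products separated by capillary electrophoresis; bidirectional analysis relative to DMSO.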
# [15] = molecular target: Nuclear receptor subfamily 1 group I member 3 (Homo sapiens) (UniProt Q14994); test: ATG_CAR_TRANS: Attagene TRANS-FACTORIAL HepG2 Assay for human Constitutive Androstane Receptor (CAR) (AID 2282969; active means hit-call score of the fitted dose curve at least 0.9, where 1 is the maximum;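 further: activators raise reporter mRNA above DMSO so AC50 marks induction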); conditions: HepG2 Attagene TRANS-FACTORIAL CAR reporter
# Summary of the method: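 Signal is reporter mRNA induction relative to DMSO, measured 24 h after dosing by RT-PCR with fluorescent primer extension and capillary electrophoresis. Human HepG2 liver cells carried transiently transfected chimeric NR-Gal4/GAL4-UAS reporter constructs.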
# [16] = molecular target: X-box-binding protein 1 (Homo sapiens) (UniProt P17861); test: ATG_Xbp1_CIS: Attagene CIS-FACTORIAL HepG2 Assay for human X-box Binding Protein 1 (XBP1) (AID 2282972); conditions: HepG2 XBP1 cis-element reporter, Attagene multiplex; actives raise or lower the signal
# Summary of the method: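 Multiplexed cis-reporter readout in transfected HepG2 liver cells. Exposure lasted 24 hours. Activity in either direction was fitted against DMSO as negative control and baseline.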
# [17] = molecular target: Androgen receptor (Homo sapiens) (UniProt P10275); test: ATG_AR_TRANS: Attagene TRANS-FACTORIAL HepG2 Assay for human Androgen Receptor (AR) (AID 2282973; active means hit-call score of the fitted dose curve at least 0.9, where 1 is the maximum); conditions: HepG2 Attagene TRANS-FACTORIAL AR reporter transcription
# Summary of the method: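 HepG2 cells transiently transfected with multiplexed GAL4-UAS reporter units and chimeric NR-Gal4 fusion; 24 h compound exposure. Reporter mRNA measured by RT-PCR, 6-FAM labelling, HpaI digestion and capillary electrophoresis; gain-of-signal fitted relative to DMSO baseline.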
# [18] = ATG_M_19_TRANS: Attagene TRANS-FACTORIAL HepG2 Assay for M19 Transcription Factor (Internal Marker) (AID 2282974; active means hit-call score of the fitted dose curve at least 0.9, where 1 is the maximum); conditions: HepG2 Attagene TRANS-FACTORIAL M19 internal marker reporter
# Summary of the method: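 Reporter mRNA induction was measured in transfected HepG2 cells 24 h after dosing. Endpoint fitted upward relative to DMSO and serves as a background control within the multiplexed TRANS panel.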
# [19] = molecular target: Steroid hormone receptor ERR1 (Homo sapiens) (UniProt P11474); test: ATG_ERRa_TRANS: Attagene TRANS-FACTORIAL HepG2 Assay for human Estrogen-Related Receptor alpha (ERRa) (AID 2282971; active means hit-call score of the fitted dose curve at least 0.9, where 1 is the maximum); conditions: HepG2 Attagene TRANS reporter, ERRa transactivation
# Summary of the method: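 HepG2 cells transiently transfected with multiplexed GAL4-UAS reporter units reading chimeric ERRa-Gal4 activity; 24 h compound exposure. Reporter mRNA measured by RT-PCR, 6-FAM labelling, HpaI digest and capillary electrophoresis; gain of signal fitted versus DMSO baseline.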
# [20] = molecular target: Estrogen receptor (Homo sapiens) (UniProt P03372); test: ATG_ERa_TRANS: Attagene TRANS-FACTORIAL HepG2 Assay for human Estrogen Receptor alpha (ERa) (AID 2282970; active means hit-call score of the fitted dose curve at least 0.9, where 1 is the maximum); conditions: HepG2 Attagene TRANS ERa GAL4 reporter, mRNA
# Summary of the method: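 One of 30 multiplexed endpoints from a HepG2 TRANS system, this one reports ERa-Gal4-driven reporter mRNA. Transcripts were quantified 24 hours post-dosing by fluorescent RT-PCR and capillary electrophoresis, with activity scored as induction over DMSO.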
smiles,measurement,setting,value
CC(C)OP(OC(C)C)OC(C)C,outcome,[1],inactive
same,outcome,[2],inactive
same,AC50,[3],active: 44.6 µM
same,outcome,[4],inactive
same,outcome,[5],inactive
same,outcome,[6],inactive
same,outcome,[7],inactive
same,outcome,[8],inactive
same,outcome,[9],inactive
same,outcome,[10],inactive
same,outcome,[11],inactive
same,outcome,[12],inactive
same,outcome,[13],inactive
same,outcome,[14],inactive
same,outcome,[15],inactive
same,outcome,[16],inactive
same,outcome,[17],inactive
same,outcome,[18],inactive
CCOP(=O)(Cl)Cl,outcome,[1],inactive
same,outcome,[2],inactive
same,outcome,[3],inactive
same,outcome,[4],inactive
same,outcome,[5],inactive
same,outcome,[6],inactive
same,outcome,[7],inactive
same,outcome,[8],inactive
same,outcome,[9],inactive
same,outcome,[10],inactive
same,outcome,[11],inactive
same,outcome,[12],inactive
same,outcome,[13],inactive
same,outcome,[14],inactive
same,outcome,[16],inactive
ClCCOP(OCCCl)OCCCl,outcome,[1],inactive
same,outcome,[2],inactive
same,outcome,[3],inactive
same,outcome,[4],inactive
same,outcome,[5],inactive
same,outcome,[6],inactive
same,outcome,[7],inactive
same,outcome,[8],inactive
same,outcome,[9],inactive
same,outcome,[10],inactive
same,outcome,[11],inactive
same,outcome,[12],inactive
same,outcome,[13],inactive
same,outcome,[14],inactive
same,outcome,[15],inactive
same,outcome,[16],inactive
same,outcome,[18],inactive
O=[N+]([O-])c1ccccc1[N+](=O)[O-],outcome,[1],inactive
same,outcome,[2],inactive
same,outcome,[3],inactive
same,outcome,[4],inactive
same,outcome,[5],inactive
same,outcome,[6],inactive
same,outcome,[7],inactive
same,outcome,[8],inactive
same,outcome,[9],inactive
same,outcome,[10],inactive
same,outcome,[11],inactive
same,outcome,[12],inactive
same,outcome,[13],inactive
same,outcome,[14],inactive
same,outcome,[19],inactive
same,outcome,[16],inactive
same,outcome,[18],inactive
ClCCNCCCl,outcome,[1],inactive
same,outcome,[2],inactive
same,AC50,[3],active: 27 µM
same,outcome,[4],inactive
same,outcome,[5],inactive
same,outcome,[6],inactive
same,outcome,[7],inactive
same,outcome,[8],inactive
same,outcome,[9],inactive
same,outcome,[10],inactive
same,outcome,[11],inactive
same,outcome,[12],inactive
same,outcome,[13],inactive
same,outcome,[14],inactive
same,outcome,[20],inactive
same,outcome,[16],inactive
same,outcome,[17],inactive
